The values that follow come from patent publication US20260137795A1 (IMMUNOME, published 2026).

The target of test [1] is T1, human ROR-1 endogenously expressed on JeKo-1 and MDA-MB-468 cells (human, UniProt Q01973).
T1 construct: whole, on cells; also called ROR-1 receptor; extracellular ROR-1 protein on cell lines
The experiment in a line: flow cytometry on MDA-MB-468 cells, titrated antibody detected with a labeled secondary antibody, % Top MFI (cellular binning with Dy650-UC961). On the technique in general: Flow cytometry measures light scatter and fluorescence of single cells or particles in a stream.

Test [2] concerns the target T1, human ROR-1 endogenously expressed on …. Put plainly: cell-based or functional assay.
The target in the next test is T2, Hu/Cy/Rh ROR1 - His (human/cynomolgus/rhesus, UniProt Q01973, in part).
T2 construct: Purified His-tagged protein; also called HUMAN/CYNO/RHESUS ROR-1; not shown: His tag
Put plainly: SPR, purified Hu/Cy/Rh ROR1-His. A general note: In SPR one partner is held on a chip, and binding of the other changes the refractive index at the surface.

B1: ATX-P-890 (antibody, human IgG1, kappa, V domains shown)
VH: QVQLVQSGAEVKKPGASVKVSCKASGYTFTGYYMHWVRQAPGQGLEWMGWINPNSGGTNYAQKFQGRVTMTRDTSISTAYMELSRLRSDDTAVYYCVRDQVQLERFDSWGQGTLVTVSS
VL: [gap - about 100 residues]
notes: human IgG1 heavy chain and kappa light chain
The EC50 (read off the curve) is the concentration giving half of the maximal effect. The low end stands for higher potency in that assay, the high end for lower potency in that assay. One may read the Kd as a measure of binding affinity in units of concentration. The low end stands for tighter binding, the high end for weaker binding. What is called koff is the rate constant with which the complex falls apart. The kon is the rate constant with which the complex forms. Higher therefore signals fast association. For the molecule B1, the “EC50 (read off the curve)” value in test [1] is roughly 0.8 nM. In test [2], the “Cellular Internalization, JeKo-1 (%)” value is 70% and the “Cellular Internalization, MDA-MB-468(%)” value turned out to be 80%. In the test with Hu/Cy/Rh ROR1 - His, this molecule had a Kd of 8.4 nM, an off-rate constant (koff) of 0.00314 s⁻¹ and a kon of 392000 M⁻¹ s⁻¹.
